{"sequences": {"note": "By UniProt entry, the sequences of proteins in these tests, tags left out. Where a name states a change or a piece, a line headed by the entry shows the natural chain unless it says otherwise.", "UniProt P80244": "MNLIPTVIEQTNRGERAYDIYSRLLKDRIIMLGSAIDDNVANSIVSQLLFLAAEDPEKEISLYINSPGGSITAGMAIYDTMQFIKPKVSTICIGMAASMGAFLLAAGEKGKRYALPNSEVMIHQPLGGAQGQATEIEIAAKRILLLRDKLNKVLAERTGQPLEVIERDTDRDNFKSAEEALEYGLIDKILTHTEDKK"}, "source": "PubChem BioAssay AID651965", "about": "(National Center for Advancing Translational Sciences (NCATS), 2013)", "note": "Only a part is listed here, and it is no random draw. Records with an inconclusive call do not appear. Calls of active or inactive are those of the source. Calls follow the shape of the dose curve; as a rule, active = well fitted falling curve with a large enough effect; inconclusive = small, poorly fitted or top-dose-only effect; inactive = no such curve, though single readings can be large or run the other way. Potency is read from the fitted curve at half-maximal effect.", "data": [{"biological_target": "ATP-dependent Clp protease proteolytic subunit (Bacillus subtilis (strain 168)) (UniProt P80244)", "assay": "qHTS Assay for Activators of ClpP; also: the source files actives as falling curves though it sought activators and does not explain the sign; nearly all actives have a fitted effect of over 65% in size", "conditions": "purified B. subtilis ClpP, FRET peptide cleavage, 20 min", "values": [{"smiles": "CCc1cc(O)c([N+](=O)[O-])c(C)c1[N+](=O)[O-]", "Potency": "active: 28.2 µM"}, {"smiles": "O=P(Nc1nccs1)(c1ccccc1)c1ccccc1", "Potency": "active: 22.4 µM"}]}]}
